We go through one substance from PMC4844700, “Rifampin phosphotransferase is an unusual antibiotic resistance kinase” (Nature Communications, 2016).

This series deals with Nc1ncnc2c1ncn2[C@@H]1O[C@H](COP(=O)(O)OP(=O)(O)OP(=O)(O)O)[C@@H](O)[C@H]1O. Put plainly: purified protein. As to conditions: RIF at five times its Km, 50 mM Hepes pH 7.5, 5 mM MgCl2, 40 mM NH4Cl, 25 °C, 11.3 μM enzyme.

By Km is commonly meant the concentration of substrate that gives half-maximal velocity. The kcat is the number of substrate molecules converted per active site and unit of time at saturation. One may read the kcat/Km as the second-order rate constant that governs catalysis at low substrate concentration. “RPH-Lm (rifampin phosphotransferase) (Listeria monocytogenes serotype 4b str. F2365)”: the Km is 8.38 ± 0.67 µM, the kcat came out at 2.87 s⁻¹ and the kcat/Km stood at 342000 M⁻¹ s⁻¹.
